## Binding of CDR-mutated scFvs to a peptide of the spike HR2 region

Antigen: PDVDLGDISGINAS, a 14-residue peptide of the SARS-CoV-2 spike HR2 region.

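The parent was found by panning a naive human phage display library on the peptide. The variants were designed computationally from a first round of random CDR variants and then made and measured. Group labels follow the data file (Ctrl: baseline library sampled from a position-specific scoring matrix, with some repeated check sequences; En: ensemble of fine-tuned language models; GP: Gaussian process model; HC: hill climbing; Gen: genetic algorithm; Gibbs: Gibbs sampling; a sequence that several methods proposed may carry one label only). The assay is AlphaSeq: two haploid yeast populations carry antibody and antigen on their surface. The frequency of each diploid, read from paired DNA barcodes, reflects how well the two displayed proteins bind. Read counts were normalised to the haploid input and turned into Kd by a linear fit to BCL2-family pairs of known affinity, for each replicate. The assay was run in six technical replicates.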

Each scFv is VH, three GGGGS repeats, VL, as in the parent Ab-14, and differs from it in the CDRs of the light chain only.
VH: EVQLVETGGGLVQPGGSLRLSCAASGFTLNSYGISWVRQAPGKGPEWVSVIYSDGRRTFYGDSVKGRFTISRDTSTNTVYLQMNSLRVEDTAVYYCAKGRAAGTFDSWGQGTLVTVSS
VL: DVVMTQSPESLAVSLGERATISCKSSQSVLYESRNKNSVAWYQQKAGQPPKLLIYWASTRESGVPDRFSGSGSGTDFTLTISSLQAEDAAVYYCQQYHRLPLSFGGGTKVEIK

Variants are written as CDR1, CDR2 and CDR3 of the light chain (limits as in the source). Parent: KSSQSVLYESRNKNSVA, WASTRES, QQYHRLPLS. This list holds designs with more than six substitutions. Each Kd is an estimate from the mating assay, the geometric mean of the replicates in which the pair was seen; lower is stronger. An entry "nd" has no value in the source: the pair was not observed among the diploids in any replicate. This suggests poor binding but is not conclusive. The authors' rule: three or more of the six replicates give a measured affinity, fewer mean a poor binder. Empty control strains, which show no peptide, gave a signal in 4% of pairings with all light chain designs; the median was 430 nM and 95% of these signals were weaker than 38 nM. No background was subtracted. The control count says in how many pairings with the empty strains this scFv gave a signal. A sequence measured in both rounds can read differently, since the two assays cover different ranges. The parent sequence was in this pool as ten entries: three were never detected, three once, and four in most replicates, with averages from 2.2 nM to 240 nM.

Variant HITYGMYVAGRHSSSIA | QAETRAK | QQYDRLPLS [En_Gen] gave 5.3 nM (6 of 6 replicates; controls 1 of 18). With KLSQSVEYQSRDKNAVA | DAQTRES | QQYHRLPLS [GP_Gibbs] the result was 780 pM (6 of 6 replicates; controls 1 of 18). Variant QMTHPEESWQANQRSIA | NASASLD | QQYAQLPLM [En_Gibbs] gave 3.0 nM (6 of 6 replicates; controls 1 of 18). Variant QMTENDRGHQAGGGSIA | DATETME | QQYMHLPLS [En_Gibbs] gave 2.8 nM (6 of 6 replicates; controls 1 of 18). With NITGMVESKGTTTKNIA | EAEFRCG | QQYSRLPLS [En_Gibbs] the result was 7.3 nM (6 of 6 replicates; controls 3 of 18). Variant KVQQSFLYESRNVMSVA | NASTREE | QQYHRLPLS [GP_Gibbs] showed 860 pM (6 of 6 replicates; controls 1 of 18). Variant VLGGQWGLGTTQNSSVA | NVSETML | QQYNRLPLM [En_Gibbs] showed 34 nM (6 of 6 replicates; controls 1 of 18). Variant NVGQLMDGESRNHNSVA | HQSTRED | QHYHRLPLS [En_HC] gave 470 pM (6 of 6 replicates; controls 1 of 18).

With KISQMTRVGATHNNSIA | EEQTRAK | QQYHRLPLA [En_Gen] the result was 23 nM (4 of 6 replicates; controls 0 of 18). For KLGDMVHTLSRNKNSIA | DMRTRES | QQYHRLPLS [En_HC], the assay gave 700 pM (6 of 6 replicates; controls 2 of 18). With MISNLMNMGQFAINSVA | QASIRNE | QQYDRLPLV [En_Gen] the result was 13 nM (6 of 6 replicates; controls 2 of 18). Variant GVDHTMYSAQEAPNSIA | NAEQTNI | QQYQRLPLS [En_Gibbs] showed 6.3 nM (6 of 6 replicates; controls 1 of 18). With KLQQSQLYESRNTNSVA | QASQREV | QQYHRLPLS [GP_Gibbs] the result was 18 nM (6 of 6 replicates; controls 0 of 18). Variant MVSQLMVWGMHAKNSIA | EAQTRCN | QQYDRLPLF [En_Gen] showed 1.5 µM (2 of 6 replicates; controls 0 of 18). Variant QFESHLAPIGNIQHSIA | DTSCAEP | QSYFRLPLS [En_Gibbs] showed 23 nM (4 of 6 replicates; controls 0 of 18). With QLAESVHMESRNKNSVA | DNSTRES | QHYDRLPLS [En_HC] the result was 210 nM (4 of 6 replicates; controls 0 of 18).

Variant KLNQDPVLKTNINNSVA | DHSEVFQ | QQYAHLPLQ [En_Gibbs] showed 84 nM (5 of 6 replicates; controls 0 of 18). Variant KLSQFYRMEMRNKNSVA | DNSTRES | QDYDRLPLS [En_HC] gave 110 nM (1 of 6 replicates; controls 0 of 18). Variant KISFQTLIESKNLNSVA | EMTTREY | QDYDRLPLS [En_HC] showed nd (0 of 6 replicates; controls 0 of 18). Variant KVSQEMLTEFRNKVAVA | HASTRES | QQIHRLPLS [Ctrl] showed 6.3 nM (6 of 6 replicates; controls 1 of 18). Variant NISINVADEYAMRNNIA | NTAWKAI | QQYFHLPLM [En_Gibbs] gave 13 nM (6 of 6 replicates; controls 0 of 18). For HMSMLTLMGQRHRNSVA | QMTTREN | QQYDRLPLS [En_Gen], the assay gave 32 nM (6 of 6 replicates; controls 1 of 18). With KLSMSYRYEMENKNSIA | ELVTRMS | QQYHRLPLS [En_HC] the result was 9.0 nM (6 of 6 replicates; controls 0 of 18). Variant KYEFSVLELSRNSNAVA | NASTREE | QQYHRLPLS [GP_Gibbs] showed 880 pM (6 of 6 replicates; controls 1 of 18).

For NFSQMVLMGSTLKNSVA | HASTREE | QQYHRLPLI [En_HC], the assay gave 9.1 nM (6 of 6 replicates; controls 2 of 18). Variant KLVQFMNRGTHHTSNIA | DAQNRID | QQYFRLPLA [En_Gen] showed 66 nM (3 of 6 replicates; controls 0 of 18). Variant HMSMLTLMGSRNRNSVA | QMTTREN | QQYDRLPLA [En_Gen] gave 7.3 nM (6 of 6 replicates; controls 0 of 18). Variant HMSALTLQGMRMRNSVA | QMTTREN | QQYDRLPLS [En_Gen] showed 5.3 nM (6 of 6 replicates; controls 1 of 18). Variant KWSWSVDDESRNDNSVA | DASTRED | QQYHRLPLS [GP_Gibbs] showed 2.8 nM (6 of 6 replicates; controls 0 of 18). With NFSGSDQYQMQEQGNIA | QTEQKAN | QQYFRLPLT [En_Gibbs] the result was 1.9 nM (6 of 6 replicates; controls 1 of 18). With MIAESVGYQSRNKNSVA | DNSTREY | QCYDRLPLS [En_HC] the result was nd (0 of 6 replicates; controls 0 of 18). For KLSMKTYGPTEIKSNVA | NDEMRWQ | QQYDKLPLI [En_Gibbs], the assay gave 62 nM (5 of 6 replicates; controls 0 of 18).

Variant RISAHVYDETNTYENVA | NEHIRAN | QQYSRLPLS [En_Gibbs] gave 1.2 nM (6 of 6 replicates; controls 1 of 18). With KVSEFMRGLSMRKDSIA | DNNTRSN | QQYDRLPLS [En_Gen] the result was 3.0 nM (6 of 6 replicates; controls 1 of 18). For YMSGQEPGDWNQQEAVA | EVTYKEH | QQYYRLPLS [En_Gibbs], the assay gave 70 nM (5 of 6 replicates; controls 0 of 18). Variant KISQSVNVGSKAKNSLA | EMSTREF | QDYHRLPLS [En_HC] showed 3.5 nM (6 of 6 replicates; controls 1 of 18). Variant KLGQMTGIESHNKNSLA | DANRRES | QQYHRLPLS [En_HC] gave 400 pM (6 of 6 replicates; controls 1 of 18). Variant KLEQSMLYESRNSNSVA | NASTRMH | QQYHRLPLM [GP_Gibbs] gave 850 pM (6 of 6 replicates; controls 1 of 18). With KLVQFMNRGTHHTSNIA | DAQNRCD | QQYARLPLA [En_Gen] the result was 1.2 nM (6 of 6 replicates; controls 0 of 18). For KLEGQHLYESRNANSVA | NASTRMS | QQYHRLPLS [GP_Gibbs], the assay gave 410 pM (6 of 6 replicates; controls 2 of 18).

Variant HAYQSGLYEQRNKNSVA | SASMRES | QQYHRLPLS [GP_Gibbs] gave 1.2 nM (6 of 6 replicates; controls 0 of 18). With IFSQSVLMGNLTKNSVA | QASTRFN | QQYHRLPLI [En_HC] the result was 34 nM (6 of 6 replicates; controls 2 of 18). With KQSQSVPMGERNKNSVA | MASYRLS | QQYHRLPLS [GP_Gibbs] the result was 91 nM (6 of 6 replicates; controls 0 of 18).

Extract of 3 entries:

KLVQFMNRGTHHTSNIA | DAQNRID | QQYFRLPLA [En_Gen]: 66 nM (3 of 6 replicates; controls 0 of 18).
KLGDMVHTLSRNKNSIA | DMRTRES | QQYHRLPLS [En_HC]: 700 pM (6 of 6 replicates; controls 2 of 18).
KISQMTRVGATHNNSIA | EEQTRAK | QQYHRLPLA [En_Gen]: 23 nM (4 of 6 replicates; controls 0 of 18).

Data: MIT Lincoln Laboratory AlphaSeq set, Li et al. 2023, doi:10.1038/s41467-023-39022-2, as distributed in FLAb.